Test results taken from patent US20250382286A1, “CO-CRYSTAL OF AFICAMTEN, AND PREPARATION METHOD THEREFOR AND USE THEREOF” (CRYSTAL PHARMACEUTICAL (SUZHOU) CO., LTD., priority 2023, published 2025).

Legend:
[1] = Flowability (compressibility / Carr index by tap density tester); assay type: physicochemical; conditions: tapped 1250 times; smaller index = better flowability
Description: Approximately 400 mg of sample was weighed into a 5-mL graduated cylinder, and the volume before tapped (Vo) was recorded. Then the sample was tapped for 1250 times by ZS-2E tap density tester and the volume after tapped (Vt) was recorded. The compressibility index (c) was calculated using the formula: c=(V0−Vf)/V0*100%. A smaller compressibility index indicates better flowability. The results are shown in Table 5 and indicate that Form CSI has better flowability.

[2] = Kinetic solubility in FaSSGF, FaSSIF, FeSSIF and water; assay type: physicochemical; conditions: 37° C., 1 h

CCc1nc(-c2ccc3c(c2)CC[C@H]3NC(=O)c2cnn(C)c2)no1.CCc1nc(-c2ccc3c(c2)CC[C@H]3NC(=O)c2cnn(C)c2)no1.O=C(O)C(O)C(O)C(=O)O [Form CSI]
Carr index (compressibility index) [1]: 21.8%
Solubility (concentration of Compound I in solution) ([2]; FaSSGF): 35.1 µg/mL
Solubility (concentration of Compound I in solution) ([2]; FaSSIF): 42.3 µg/mL
Solubility (concentration of Compound I in solution) ([2]; FeSSIF): 163.4 µg/mL
Solubility (concentration of Compound I in solution) ([2]; Water): 45.1 µg/mL

CCc1nc(-c2ccc3c(c2)CC[C@H]3NC(=O)c2cnn(C)c2)no1 [Form IV, reference compound]
Carr index (compressibility index) [1]: 25.0%
Solubility (concentration of Compound I in solution) ([2]; FaSSGF): 29.9 µg/mL
Solubility (concentration of Compound I in solution) ([2]; FaSSIF): 31.9 µg/mL
Solubility (concentration of Compound I in solution) ([2]; FeSSIF): 103.3 µg/mL
Solubility (concentration of Compound I in solution) ([2]; Water): 33.8 µg/mL
